Among the data in PubChem BioAssay AID2805 (Sanford-Burnham Center for Chemical Genomics, 2010) are activation factor values, retold here.

The entries are a selection whose mix differs from that of the whole data set. Active and inactive are the calls of the source.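 The calls were made as follows: active = activation factor of at least 2 at 20 µM; inactive = the rest.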

For this assay, the system named is intestinal alkaline phosphatase [Mus musculus]. In words: mouse intestinal phosphatase enzyme activation – biochemical, luminescence, uHTS, primary screen (AID 2805). To be noted: muIAP, CDP-Star luminescence, 30 min; at 10 µM; hits give high values; 1 = vehicle-only enzyme signal, 0 = enzyme-free wells. An outline of the steps:
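Assay system: mouse IAP enzyme / Compound: DMSO-dissolved test compounds / Timing: 30 min, room temperature / Measured by: luminescence from enzymatic CDP-Star hydrolysis / Control set: DMSO-only wells, enzyme-free buffer wells as negative control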
Turning to `Cc1ccc(OP(=O)(Nc2ccccn2)Oc2ccc(C)cc2)cc1`, the activation factor is inactive: 1.05.
Regarding `CC(=O)NC(SC(=S)N(CC(C)C)CC(C)C)C(Cl)(Cl)Cl` (configuration not stated), the activation factor is inactive: 1.04.
For the compound `COC(=O)c1cc2c(s1)N=C(c1ccccc1)N(C)P2(=O)N1CCOCC1` (configuration not stated), the activation factor was inactive: 1.03.
Regarding `CCC(=O)N1C2C3N(C(=O)CC)C1C1N(C(=O)CC)C(C(N1C(=O)CC)N3C(=O)CC)N2C(=O)CC`, the activation factor was inactive: 0.956.
Then `O=C(OC1CN2CCC1CC2)c1ccccc1` (configuration not stated), with inactive: 1.06.
As for `Cc1ccc(NP(=O)(Oc2ccccc2F)Oc2ccccc2F)nc1`, the activation factor was inactive: 1.08.
Regarding `CN(C(=O)Cc1ccc(Cl)c(Cl)c1)[C@H]1CCCC[C@@H]1N1CCCC1`, the activation factor was inactive: 1.02.
Turning to `CCOP(=O)(Nc1ccccc1)OCC`, the activation factor was inactive: 0.905.
Turning to `Cc1cc(SC(NC(=O)c2ccc(F)cc2)C(Cl)(Cl)Cl)ncn1` (configuration not stated), the activation factor is inactive: 1.04.
As for `O=C(O)c1ccccc1[As](=O)(O)O`, the activation factor is inactive: 0.955.
Next, `CC(=O)Nc1ccc([As](=O)(O)O)cc1`: inactive: 1.02; `O=P(Nc1nc2ccc(Cl)cc2s1)(c1ccccc1)c1ccccc1`: inactive: 1.04; `CCN(N=Nc1nonc1N)c1nonc1N`: inactive: 0.844.
Turning to `O=[N+]([O-])c1cc([N+](=O)[O-])c(CCN2CCOCC2)c([N+](=O)[O-])c1`, the activation factor was inactive: 0.772.
As to `Cc1ccc(OP(=O)(Nc2nccs2)Oc2ccc(C)cc2)cc1`, the activation factor was inactive: 0.892.
Then `COc1ccccc1OP(=O)(Nc1ccc(C)cn1)Oc1ccccc1OC`, with inactive: 0.945; and `Clc1ccc(Cl)c(NC2=NCC(CBr)S2)c1` (configuration not stated), with inactive: 1.02.
Take `CN1CCCC(OC(=O)C(c2ccccc2)c2ccccc2)C1` (configuration not stated): the activation factor is inactive: 0.943.
Then `NC(=O)c1cc([N+](=O)[O-])cc([N+](=O)[O-])c1N`, with inactive: 1.08.
As to `Cc1ccc(N/C(=N/P(=O)(N2CCOCC2)N2CCOCC2)N2CCOCC2)cc1`, the activation factor was inactive: 0.884.
Then `CN(C(=O)Cc1ccc(Cl)c(Cl)c1)[C@H]1CCCC[C@H]1N1CCCC1`, with inactive: 0.97.
Turning to `CC(C)CC(=O)NC(Sc1ccc(Cl)cc1)C(Cl)(Cl)Cl` (configuration not stated), the activation factor was inactive: 1.07.
For the compound `Nc1cc(N)c2nonc2c1[N+](=O)[O-]`, the activation factor is inactive: 0.878.
Next, `Cc1c2non([O-])c-2c(C)[n+](=O)[n+]1[O-]`: inactive: 1.02; `O=C(NC(Sc1ccncn1)C(Cl)(Cl)Cl)c1ccccc1` (configuration not stated): inactive: 1.08.
Take `Oc1ccccc1CNc1ccccn1`: the activation factor was inactive: 1.03.
Take `O=[N+]([O-])c1cccc2n[nH]nc12`: the activation factor was inactive: 0.937.
Next, `CC(=O)N1C2C3N(C(C)=O)C1C1N(C(C)=O)C(C(N1C(C)=O)N3C(C)=O)N2C(C)=O`: inactive: 0.952; `CCc1nc2c(n1)c1c(non1O)c1c2no[n+]1[O-]`: inactive: 0.939; `O=[N+]([O-])c1cc([N+](=O)[O-])c(CCNc2ccccc2)c([N+](=O)[O-])c1`: inactive: 0.878.
Next, `Cc1ccc(NP(=O)(Oc2ccccc2)Oc2ccccc2)nc1`: inactive: 1.18; `COc1ccc(C2=NCC(CBr)S2)cc1` (configuration not stated): inactive: 1.06; `CN(C)C(=O)OCCc1n(C)cc[n+]1C`: inactive: 0.965.
With `CC(C)=N/N=C(\N)N[N+](=O)[O-]`, the activation factor was inactive: 1.03.
For `CC1CCN(C(=O)Oc2c(Cl)cc(Cl)c3cccnc23)CC1`, the activation factor is inactive: 0.964.
On to `C[N+]1=C2C=CC=CC=C2SC12C([N+](=O)[O-])=CC([N+](=O)[O-])=C[C-]2[N+](=O)[O-]` (configuration not stated), for which the activation factor was inactive: 0.396.
Turning to `Nc1ccc([As](=O)(O)c2ccc(N)cc2)cc1`, the activation factor is inactive: 0.982.
Turning to `CCN(/C(=N/P(=O)(N1CCOCC1)N1CCOCC1)N1CCOCC1)c1ccc(OC)cc1`, the activation factor is inactive: 0.968.
With `O=C(Nc1cc([As](=O)(O)O)ccc1O)c1ccccc1`, the activation factor is inactive: 0.833.
Consider `O=[N+]([O-])c1cccc(NC2=NCC(CBr)S2)c1` (configuration not stated), for which the activation factor is inactive: 0.926.
As to `CC(C)(C)C(=O)NC(Sc1ccncn1)C(Cl)(Cl)Cl` (configuration not stated), the activation factor was inactive: 1.05.
For the compound `O=[N+]([O-])c1ncn(CCn2ncnc2[N+](=O)[O-])n1`, the activation factor was inactive: 0.983.
